AlphaSeq binding of Ab-14 heavy chain variants to a spike HR2 peptide

Binding partner: SARS-CoV-2 spike HR2 peptide, sequence PDVDLGDISGINAS.

Parent: Ab-14, a human scFv built as VH, a 15-residue (Gly4Ser)3 linker, VL. Only the CDRs of the heavy chain vary.
VH: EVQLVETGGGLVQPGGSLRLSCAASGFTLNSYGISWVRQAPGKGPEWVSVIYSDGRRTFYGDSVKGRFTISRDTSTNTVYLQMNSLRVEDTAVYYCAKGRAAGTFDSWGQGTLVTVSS
VL: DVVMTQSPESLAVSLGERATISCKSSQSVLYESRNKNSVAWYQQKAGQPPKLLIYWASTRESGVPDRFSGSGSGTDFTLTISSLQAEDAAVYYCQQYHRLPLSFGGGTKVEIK

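This is the validation round: designs drawn from the data on random variants, tested in the same kind of assay. Their group label is 14H_En_Gen (En: ensemble of fine-tuned language models; Gen: genetic algorithm). The assay is AlphaSeq: two haploid yeast populations carry antibody and antigen on their surface. Mating (16 h, 30 °C) was followed by selection of diploids and sequencing of their barcodes. The ratio of observed to expected reads was calibrated, replicate by replicate, on BCL2-family standards whose Kd was known from biolayer interferometry. Each pool was mated in six replicate cultures.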

The parent's heavy chain CDRs are GFTLNSYGIS, VIYSDGRRTFYGDSVK, GRAAGTFDS; each variant's own CDRs replace them letter for letter. Values are log10 of the apparent Kd in nM; lower means stronger binding. "n.d." marks a missing value. The strain was present, yet no cells mated with the target were sequenced in that replicate, which points to weak or no binding. In the paper, a design with two or fewer of six values counts as a poor binder. As a blank, each scFv also met three strains without target: over all heavy chain designs, 1% of these pairings were detected, typically at 2.08 and seldom below 0.84. The control count says in how many pairings with the empty strains this scFv gave a signal, with their mean in brackets. The parent sequence was in this pool as ten entries: three were never detected, three once, and four in most replicates, with averages from 0.34 to 2.37. A sequence measured in both rounds can read differently, since the two assays cover different ranges.

CDR-H1,CDR-H2,CDR-H3,"replicates, log10 nM",signal with controls
GFDLNEYGIS,VIYADGVRTAYSDSVK,GEVAGTFDT,-0.21 -0.53 -0.51 -0.37 -0.37 -0.35,2 of 18 (2.12)
GFDLDEYGIS,VIYADGMRTYYADSVK,GNNAGTFDV,n.d. 1.69 0.82 n.d. n.d. n.d.,0 of 18
GFDLNEYGIS,VIYADGMRTAYADNVK,GQTAGTFDV,n.d. 0.51 1.05 0.99 0.90 1.30,0 of 18
GFDLNEYGIS,VIYADGKRTYYADSVK,GNVAGTFDM,-0.39 -0.38 -0.50 -0.59 -0.60 -0.46,0 of 18
GFDLNEYGIS,VIYADGRRTAYADDVK,GNNAGTFDT,0.28 0.50 -0.18 -0.44 -0.32 -0.44,1 of 18 (1.16)
GFDLNEYGIS,VIYADGVRTAYADSVK,GTNAGTFDL,0.05 -0.44 -0.54 -0.68 -0.65 -0.31,0 of 18
GFDLNEYGIS,VIYADGRRTAYVDNVK,GNVAGTFDV,-0.63 -1.05 -1.05 -0.98 -0.58 -1.24,0 of 18
GFDLNEYGIS,VIYADGMRTAYVDDVK,GENAGTFDM,-0.35 0.05 -0.54 -0.51 -0.14 -0.36,0 of 18
GFDLNEYGIS,VIYADGKRQAYADSVK,GNQAGTFDV,-0.35 -0.53 -0.34 -0.41 0.16 -0.36,0 of 18
GFDLNEYGIS,VIYADGKRTAYADSVK,GEVAGTFDI,-0.13 -0.72 -1.22 1.19 2.56 0.78,0 of 18
GFDLNEYGIS,VIYADGSRTAYSDSVK,GEVAGTFDI,0.16 -0.08 -0.44 -0.44 -0.10 0.02,0 of 18
GFDLNEYGIS,VIYADGKRTAYSDSVK,GNNAGTFDT,-0.02 -0.41 0.35 -0.91 -0.33 -0.53,0 of 18
GFDLDEYGIS,VIYADGMRTAYADKVK,GETAGTFDV,0.21 -0.44 0.27 0.28 -0.10 0.00,0 of 18
GFDLDEYGIS,VIYADGKRTAYADSVK,GENAGTFDV,0.03 -0.09 -0.25 -0.21 0.25 0.63,0 of 18
GFDLNEYGIS,VIYADGMRTAYADSVK,GENGGTFDV,1.14 n.d. 1.96 n.d. n.d. n.d.,0 of 18
GFDLNEYGIS,VIYADGMRTAYAEDVK,GNNAGTFDV,0.61 0.56 -0.05 0.00 0.19 0.51,2 of 18 (2.31)
GFDLNEYGIS,VIYADGMRTAYSDDVK,GNVAGTFDV,0.38 0.85 0.52 1.09 0.09 0.69,0 of 18
GFDLNEYGIS,VIYADGMRTAYVDSVK,GQVAGTFDL,-1.68 -2.51 -1.36 -1.82 -2.60 -1.01,0 of 18
GFDLNEYGIS,VIYADGVRTAYSDSVK,GEVAGTFDV,-0.11 -0.22 -0.74 -0.11 -0.51 0.06,0 of 18
GFDLNEYGIS,VIYADGKRTAYADSVK,GNQAGTFDT,-0.96 n.d. 0.01 0.41 -0.16 1.05,0 of 18
GFDLNEYGIS,VIYADGQRTSYADSVK,GENAGTFDV,-0.46 -0.31 -0.38 -0.37 -0.67 -0.11,0 of 18
GFDLDEYGIS,VIYADGMRTAYADSVK,GTNAGTFDV,-1.60 -1.37 -0.69 -1.43 -0.96 -1.16,0 of 18
GFDLEEYGIS,VIYADGRRTAYSDSVK,GNVAGTFDL,0.12 1.52 -0.73 0.54 0.23 -0.27,0 of 18
GFDLDEYGIS,VIYADGMRTAYADDVK,GENAGTFDT,-0.51 -0.30 -0.96 -0.73 -0.44 -0.36,0 of 18
GFDLDEYGIS,VIYADGKRTAYADSVK,GANAGTFDI,-0.17 -0.23 -0.35 -0.26 -0.56 -0.14,2 of 18 (2.46)
GFDLNEYGIS,VIYADGMRTAYTDNVK,GNQAGTFDV,-0.98 -0.78 -1.07 -1.15 -0.87 -1.08,0 of 18
GFDLNEYGIS,VIYADGMRTAYADSVK,GNTAGTFDI,0.27 0.65 0.14 1.55 0.26 0.54,0 of 18
GFDLNEYGIS,VIYADGMRKFYADSVK,GENAGTFDV,-0.32 -0.07 -0.77 -0.62 -0.45 -0.08,0 of 18
GFDLDEYGIS,VIYADGQRTAYADSVK,GETAGTFDL,0.49 0.53 -0.08 -0.23 0.32 0.42,2 of 18 (3.23)
GFDLEDYGIS,VIYADGQRTAYSDSVK,GNVAGTFDV,n.d. -0.86 n.d. -1.24 n.d. n.d.,0 of 18
GFDLDEYGIS,VIYADGRRTAYADSVK,GETAGTFDV,0.03 0.39 0.05 0.31 -0.10 0.12,0 of 18
GFDLDEYGIS,VIYADGKRTVYADSVK,GENAGTFDI,-1.71 -0.77 -1.40 -1.31 -0.28 n.d.,0 of 18
GFDLNEYGIS,VIYADGVRTAYIDSVK,GNVAGTFDL,0.03 -0.26 -0.61 -0.44 -0.43 0.13,0 of 18
GFDLDEYGIS,VIYADGMRTAYSDSVK,GNEAGTFDM,-0.43 -0.08 -0.09 -0.35 -0.17 -0.22,1 of 18 (2.11)
GFDLDEYGIS,VIYADGKRTAYANDVK,GEVAGTFDV,n.d. n.d. n.d. n.d. n.d. n.d.,0 of 18
GFDLDEYGIS,VIYADGMRTFYADSVK,GQNAGTFDV,n.d. n.d. n.d. n.d. n.d. n.d.,0 of 18
GFDLNEYGIS,VIYADGMRTAYADDVK,GNVAGTFDA,-0.53 -0.28 -0.83 -0.59 -0.54 -0.40,0 of 18
GFDLDEYGIS,VIYADGKRTAYADKVK,GNVAGTFDV,-0.28 -0.29 -0.21 -0.45 -0.26 -0.31,0 of 18

The closing 6 entries, repeated:

CDR-H1,CDR-H2,CDR-H3,"replicates, log10 nM",signal with controls
GFDLNEYGIS,VIYADGVRTAYIDSVK,GNVAGTFDL,0.03 -0.26 -0.61 -0.44 -0.43 0.13,0 of 18
GFDLDEYGIS,VIYADGMRTAYSDSVK,GNEAGTFDM,-0.43 -0.08 -0.09 -0.35 -0.17 -0.22,1 of 18 (2.11)
GFDLDEYGIS,VIYADGKRTAYANDVK,GEVAGTFDV,n.d. n.d. n.d. n.d. n.d. n.d.,0 of 18
GFDLDEYGIS,VIYADGMRTFYADSVK,GQNAGTFDV,n.d. n.d. n.d. n.d. n.d. n.d.,0 of 18
GFDLNEYGIS,VIYADGMRTAYADDVK,GNVAGTFDA,-0.53 -0.28 -0.83 -0.59 -0.54 -0.40,0 of 18
GFDLDEYGIS,VIYADGKRTAYADKVK,GNVAGTFDV,-0.28 -0.29 -0.21 -0.45 -0.26 -0.31,0 of 18

The measurements come from Li et al. 2023 (doi:10.1038/s41467-023-39022-2) through the FLAb antibody collection.